Ab-14 light chain CDR variants: yeast mating affinities

Values reported by Engelhart et al. 2022, doi:10.1038/s41597-022-01779-4 (FLAb copy).

The target is the same throughout: PDVDLGDISGINAS, from the HR2 region of SARS-CoV-2 spike.

Ab-14 is the parent antibody, in scFv form: VH, then a (GGGGS)3 linker, then VL. The heavy chain is unchanged in all variants.
VH: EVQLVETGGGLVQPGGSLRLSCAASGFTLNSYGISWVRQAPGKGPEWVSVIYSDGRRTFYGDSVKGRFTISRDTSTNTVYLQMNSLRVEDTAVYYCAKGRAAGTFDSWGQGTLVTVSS
VL: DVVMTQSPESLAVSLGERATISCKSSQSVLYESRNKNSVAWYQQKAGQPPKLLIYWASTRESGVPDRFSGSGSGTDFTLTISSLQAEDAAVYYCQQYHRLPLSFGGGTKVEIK

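The starting antibody came from a phage panning campaign against this peptide. Variants in AAYL50 differ from the parent at up to three CDR positions; double and triple changes were sampled at random. The scFvs were displayed on barcoded MATa yeast, the peptide on MATalpha yeast. Pairs that bind mate more often; barcode pairs of the diploids are counted by sequencing. Read counts were normalised to the haploid input and turned into Kd by a linear fit to BCL2-family pairs of known affinity, for each replicate. Each pool was mated in three replicate cultures.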

Positions count from residue 1 of the parent VL; K24I puts I in place of K. The read-out is the apparent dissociation constant on a log10 scale (nM): the lower, the stronger. The mean shown is taken over the replicates in which the pair was detected. A pair that was not seen in that replicate is written "nd"; this usually means weak binding, but a binder can also be missed. As a blank, each scFv also met three strains without target: over library AAYL50, 18% of these pairings were detected, typically at 4.19 and seldom below 2.99. For each scFv, signals with the empty controls are counted beside the result, with their mean in brackets. For reference, the parent read 0.65 as the reference entry and 1.68 as a member of this library.

changes | log10 Kd (nM) by replicate | log10 Kd (nM), mean | control signals
K24I S28N S62L | 1.70 1.86 1.51 | 1.69 | 0/9
L30M A57G T59P | nd nd nd | nd | 0/9
W56Y S62L | 0.39 0.57 0.65 | 0.54 | 3/9 (4.01)
Y31T R34L N37Q | 0.56 0.79 0.66 | 0.67 | 4/9 (5.61)
Y31N A40T R99K | 3.92 nd 4.39 | 4.16 | 2/9 (5.33)
N35R V39D S58V | 5.80 3.27 5.11 | 4.72 | 4/9 (4.97)
S38Y L100F S103G | 3.51 3.27 3.49 | 3.42 | 3/9 (3.81)
S28V S58F E61I | nd nd nd | nd | 1/9 (3.90)
S25L N35R P101C | 0.33 0.46 0.54 | 0.44 | 0/9
V39R Y97A S103A | nd nd 3.01 | 3.01 | 1/9 (3.31)
S26R N35M S38R | nd 3.41 nd | 3.41 | 0/9
Q27A R34C T59K | 1.25 1.71 2.05 | 1.67 | 2/9 (3.22)
A57W | nd nd nd | nd | 1/9 (3.47)
T59F L102H | nd nd nd | nd | 4/9 (3.67)
N37K L102M S103R | nd nd nd | nd | 0/9
T59V | 0.94 1.08 1.06 | 1.03 | 3/9 (4.61)
K36V Y97R H98P | 5.90 nd nd | 5.90 | 2/9 (4.39)
E32N Q96R P101Q | nd 4.33 nd | 4.33 | 2/9 (3.00)
S26G N37Q Q96T | 1.75 2.01 2.13 | 1.96 | 2/9 (4.39)
S26H V29W R34I | 3.46 3.96 4.92 | 4.11 | 2/9 (3.83)
S26W R60L | 3.25 2.70 nd | 2.98 | 1/9 (5.32)
E32N P101A L102Y | 1.51 1.93 2.10 | 1.85 | 4/9 (4.56)
A40S R60H R99T | nd nd nd | nd | 1/9 (3.78)
S25L L30V N37Y | -0.18 0.23 0.04 | 0.03 | 1/9 (5.00)
K24N S58F R99C | nd 3.96 nd | 3.96 | 0/9
L30K S38Y W56G | 1.47 1.52 1.38 | 1.46 | 1/9 (4.91)
S28F A57N L100K | nd nd nd | nd | 0/9
S28W K36N L102A | 1.81 2.00 2.27 | 2.03 | 3/9 (3.36)
V29G W56A Y97F | 0.85 0.94 1.05 | 0.95 | 2/9 (3.59)
T59L R60K S62H | 2.04 2.27 2.09 | 2.13 | 3/9 (4.20)
Q96N L102T | 2.06 2.36 nd | 2.21 | 0/9
E32G N37M A40Q | nd nd nd | nd | 0/9
S26F N35E L102K | nd nd nd | nd | 2/9 (2.79)
E32W A57Y S103F | nd nd nd | nd | 0/9
S38G L102R S103L | nd nd nd | nd | 0/9
K36D S62T Y97W | 4.66 3.60 nd | 4.13 | 1/9 (5.32)
K24A R60F Y97E | nd nd nd | nd | 1/9 (4.21)
K24M S26K Y97F | 2.26 2.07 2.33 | 2.22 | 1/9 (3.69)
R34N K36T E61D | 1.22 1.69 1.52 | 1.48 | 1/9 (4.77)
K36V R60W | 3.58 nd 2.98 | 3.28 | 0/9
S28Q S33W R60T | nd nd 5.07 | 5.07 | 3/9 (4.76)

The first 7 entries again:

| changes | log10 Kd (nM) by replicate | log10 Kd (nM), mean | control signals |
|---|---|---|---|
| K24I S28N S62L | 1.70 1.86 1.51 | 1.69 | 0/9 |
| L30M A57G T59P | nd nd nd | nd | 0/9 |
| W56Y S62L | 0.39 0.57 0.65 | 0.54 | 3/9 (4.01) |
| Y31T R34L N37Q | 0.56 0.79 0.66 | 0.67 | 4/9 (5.61) |
| Y31N A40T R99K | 3.92 nd 4.39 | 4.16 | 2/9 (5.33) |
| N35R V39D S58V | 5.80 3.27 5.11 | 4.72 | 4/9 (4.97) |
| S38Y L100F S103G | 3.51 3.27 3.49 | 3.42 | 3/9 (3.81) |